## Antibody variant affinities, Ab-14 heavy chain, assay B

The target is the same throughout: PDVDLGDISGINAS, from the HR2 region of SARS-CoV-2 spike.

Ab-14 is the parent antibody, in scFv form: VH, then three GGGGS repeats, then VL. The light chain is unchanged in all variants.
VH: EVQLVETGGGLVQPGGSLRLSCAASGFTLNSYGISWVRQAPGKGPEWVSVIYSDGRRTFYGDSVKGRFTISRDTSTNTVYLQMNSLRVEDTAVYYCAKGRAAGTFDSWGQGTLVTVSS
VL: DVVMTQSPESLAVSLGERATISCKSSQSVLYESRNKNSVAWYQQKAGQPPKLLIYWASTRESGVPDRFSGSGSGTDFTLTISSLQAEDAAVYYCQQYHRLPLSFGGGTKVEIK

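This is the validation round: designs drawn from the data on random variants, tested in the same kind of assay. Group labels follow the data file (En: ensemble of fine-tuned language models; HC: hill climbing; Gen: genetic algorithm; Gibbs: Gibbs sampling; a sequence that several methods proposed may carry one label only). In AlphaSeq, yeast of one mating type display the scFv and yeast of the other type display the target. Mating (16 h, 30 °C) was followed by selection of diploids and sequencing of their barcodes. A regression on co-assayed BCL2-family reference pairs converts the normalised counts of each replicate to an apparent Kd. There are six technical replicates.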

The parent's heavy chain CDRs are GFTLNSYGIS, VIYSDGRRTFYGDSVK, GRAAGTFDS; each variant's own CDRs replace them letter for letter.
Variants here have more than six changes.
Each Kd is an estimate from the mating assay, the geometric mean of the replicates in which the pair was seen; lower is stronger.
A pair that was not seen in any replicate is written "no signal"; this usually means weak binding, but a binder can also be missed.
The list is sorted by this average, lowest first, undetected variants last.
Three control strains display no target. For all heavy chain designs, 1% of the pairings with them gave a signal, with a median of 120 nM and one signal in twenty below 7.0 nM, so weak values seen in few replicates may be background. For each scFv, signals with the empty controls are counted beside the result.
The range of this assay differs from that of the first round, and the authors advise against merging the two.
The authors averaged sequences with at least three values out of six and counted those with two or fewer as poor binders.
The parent sequence was in this pool as ten entries: three were never detected, three once, and four in most replicates, with averages from 2.2 nM to 240 nM.

For GFDLNEYGIS / VIYADGKRTFYADSVK / GQAAGTFDK [En_HC], the assay gave 110 pM (6 of 6 replicates; controls 0 of 18). For GFNLNEYGIS / VIYADGRRTFYTDDVK / GENAGTFDL [En_HC], the assay gave 140 pM (6 of 6 replicates; controls 0 of 18). The variant GFDLNEYGIS / VIYADGVRTYYADSVK / GNNAGTFDI [En_Gen] showed 160 pM (6 of 6 replicates; controls 0 of 18). For GFDLNEYGIS / VIYADGKRTAYADSVK / GEIAGTFDV [En_Gen], the assay gave 170 pM (6 of 6 replicates; controls 0 of 18). The variant GFDLNEYGIS / VIYADGMRTAYSDSVK / GTVAGTFDI [En_Gen] showed 170 pM (6 of 6 replicates; controls 0 of 18). The variant GFDLNEYGIS / VIYADGRRTFYADDVK / GEVAGTFNS [En_HC] showed 240 pM (6 of 6 replicates; controls 1 of 18). With GFDLNEYGIS / VIYADGSRTAYTDSVK / GNVAGTFDI [En_Gen] the result was 270 pM (6 of 6 replicates; controls 0 of 18). With GFDLNEYGIS / VIYADGVRTFYADSVK / GQVAGTFDM [En_HC] the result was 280 pM (6 of 6 replicates; controls 0 of 18). With GFDLNEYGIS / VIYADGRRTAYADSVK / GNVAGTFDV [En_Gen] the result was 280 pM (6 of 6 replicates; controls 1 of 18).

With GFNLNEYGIS / VIYADGRRKAYADSVK / GNTAGTFDS [En_HC] the result was 300 pM (6 of 6 replicates; controls 0 of 18). With GFDLNEYGIS / VIYADGRRTVYADSVK / GNVAGTFDV [En_Gen] the result was 300 pM (6 of 6 replicates; controls 0 of 18). The variant GFDLNEYGIS / VIYADGRRTFYADSVK / GQDAGTFDV [En_HC] showed 370 pM (6 of 6 replicates; controls 0 of 18). The variant GFDLNEYGIS / VIYADGLRTAYADSVK / GEVAGTFDI [En_Gen] showed 400 pM (6 of 6 replicates; controls 0 of 18). With GFDLNEYGIS / VIYADGRRTFYADSVK / GEIAGTFDI [En_HC] the result was 400 pM (6 of 6 replicates; controls 1 of 18). For GFDLNEYGIS / VIYADGMRTAYADNVK / GETAGTFDL [En_Gen], the assay gave 450 pM (6 of 6 replicates; controls 0 of 18). The variant GFDLNEYGIS / VIYADGLRTAYADDVK / GENAGTFDV [En_Gen] showed 530 pM (6 of 6 replicates; controls 0 of 18). For GFDLDEYGIS / VIYADGVRKAYADSVK / GNQAGTFDV [En_Gen], the assay gave 560 pM (6 of 6 replicates; controls 0 of 18). With GFDLNEYGIS / VIYADGIRTQYIDSVK / GNEAGTFDT [En_HC] the result was 590 pM (6 of 6 replicates; controls 0 of 18).

For GFDLNEYGIS / VIYADGQRTFYADSVK / GEAAGTFDQ [En_HC], the assay gave 960 pM (6 of 6 replicates; controls 0 of 18). With GFDLDEYGIS / VIYADGKRQAYADSVK / GENAGTFDV [En_Gen] the result was 1.3 nM (6 of 6 replicates; controls 0 of 18). With GFDLNEYGIS / VIYADGRRTAYADSVK / GENAGTFDA [En_Gen] the result was 1.4 nM (6 of 6 replicates; controls 0 of 18). The variant GFDLNEYGIS / VIYADGRRTFYTDSVK / GENAGTFDV [En_HC] gave 2.9 nM (6 of 6 replicates; controls 0 of 18). The variant GFDLDEYGIS / VIYADGRRTFYADSVK / GGNAGTFDQ [En_HC] showed 4.3 nM (6 of 6 replicates; controls 0 of 18). For GEDINEYGVS / VIYADGKRNAYANSVK / GKWAGAFVD [En_Gibbs], the assay gave 5.7 nM (6 of 6 replicates; controls 1 of 18). With GFDLNEYGIS / VIYADGMRTAYADDVK / GENAGTFDT [En_Gen] the result was 20 nM (6 of 6 replicates; controls 0 of 18). For GFKLEEYGIS / VIYADGKRVAYQDKVK / GKHAGMFDV [En_Gibbs], the assay gave 24 nM (6 of 6 replicates; controls 0 of 18). For GKDMNEYGIS / VIYADGSRAAYGDNFK / GELAGTFDM [En_Gibbs], the assay gave 45 nM (4 of 6 replicates; controls 0 of 18).

With GYDMEDYGIS / VIYADGSRAAYVDNFK / GELAGTFDM [En_Gibbs] the result was 69 nM (1 of 6 replicates; controls 1 of 18). The variant GFNLDEYGIS / VIYADGMRRAYSDEVK / GYFSDILLM [En_Gibbs] gave 110 nM (1 of 6 replicates; controls 0 of 18). For GFDLNEYGIS / VIYADGMRTAYSDDVK / GENAGTFDV [En_Gen], the assay gave 120 nM (1 of 6 replicates; controls 0 of 18). With GFHLDEYGIS / VIYADGKRVAYTNHVK / GELEGGFVI [En_Gibbs] the result was no signal (0 of 6 replicates; controls 0 of 18). With GYDIDEYGIS / VIYADGQRTSYVQNVK / GAGDITGLV [En_Gibbs] the result was no signal (0 of 6 replicates; controls 0 of 18). The variant GFDLDEYGIS / VIYADGVRTSYADSVK / GNVAGTFDV [En_Gen] gave no signal (0 of 6 replicates; controls 0 of 18). The variant GFDIDEFGIS / VIYADGSRQVYQDNVK / GVGTGTFTL [En_Gibbs] gave no signal (0 of 6 replicates; controls 0 of 18). The variant GFDLNEYGIS / VIYADGRRTFYSDSVK / GEAAGTFVI [En_HC] gave no signal (0 of 6 replicates; controls 0 of 18). With GFNLEEYGIS / VIYADGDRMSYDEAVK / GQISGVIDM [En_Gibbs] the result was no signal (0 of 6 replicates; controls 0 of 18).

For GSGLDEYGIS / VIYADGMRTAYKNSVK / GSFTYVMFV [En_Gibbs], the assay gave no signal (0 of 6 replicates; controls 0 of 18). With GFNLEEYGIS / VIYADGMRTAYADKVK / GGLDVQEGY [En_Gibbs] the result was no signal (0 of 6 replicates; controls 1 of 18). For GFDINEYGIS / VIYADGMRKAYVQNVK / GENPSSVQI [En_Gibbs], the assay gave no signal (0 of 6 replicates; controls 0 of 18). With GFDLNEYGVS / VIYADGTRTQYTNKVK / GGFSYASTV [En_Gibbs] the result was no signal (0 of 6 replicates; controls 0 of 18). The variant GFPIDEYGIS / VIYADGRRTVYSDNVK / GNYMASGKI [En_Gibbs] gave no signal (0 of 6 replicates; controls 0 of 18). For GFNLEEVGIS / VIYADGLRSAYVDAVK / GGVGDVDFV [En_Gibbs], the assay gave no signal (0 of 6 replicates; controls 0 of 18). The variant GFDLGEYGVS / VIYADGLRAQYASKVK / GNFSGNIDK [En_Gibbs] gave no signal (0 of 6 replicates; controls 0 of 18). For GNVLDEFGIS / VIYADGMRTAYAQDVK / GITGDNFMT [En_Gibbs], the assay gave no signal (0 of 6 replicates; controls 0 of 18).

The first 3 variants above that were never detected:

The variant GFHLDEYGIS / VIYADGKRVAYTNHVK / GELEGGFVI [En_Gibbs] gave no signal (0 of 6 replicates; controls 0 of 18).
The variant GYDIDEYGIS / VIYADGQRTSYVQNVK / GAGDITGLV [En_Gibbs] gave no signal (0 of 6 replicates; controls 0 of 18).
The variant GFDLDEYGIS / VIYADGVRTSYADSVK / GNVAGTFDV [En_Gen] gave no signal (0 of 6 replicates; controls 0 of 18).

From the AlphaSeq antibody data of Li et al. 2023 (doi:10.1038/s41467-023-39022-2), copy in the FLAb collection.